Test results published in PubChem BioAssay (NCI).
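Where inhibition never reached the appropriate level, the endpoint shown equals the highest concentration tested. Otherwise, values were interpolated linearly from a five-concentration, 48-hour dose response in 96-well plates. GI50 is the concentration that inhibits growth by half. TGI: concentration producing complete growth inhibition.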

Assays:
Assay in all cases: NCI anticancer screen, dose series, 48 h
786-0 renal = tested on: 786-0 renal
U251 CNS = tested on: U251 CNS
CAKI-1 renal = tested on: CAKI-1 renal
SK-MEL-28 melanoma = tested on: SK-MEL-28 melanoma
NCI-H322M lung = tested on: NCI-H322M lung
MOLT-4 leukemia = tested on: MOLT-4 leukemia
BT-549 breast = tested on: BT-549 breast
SK-MEL-2 melanoma = tested on: SK-MEL-2 melanoma
OVCAR-3 ovarian = tested on: OVCAR-3 ovarian
A498 renal = tested on: A498 renal
SN12C renal = tested on: SN12C renal
K-562 leukemia = tested on: K-562 leukemia
HT29 colon = tested on: HT29 colon
A549 NSCLC = tested on: A549 NSCLC
MDA-MB-435 = tested on: MDA-MB-435
SK-OV-3 ovarian = tested on: SK-OV-3 ovarian
TK-10 renal = tested on: TK-10 renal
UO-31 renal = tested on: UO-31 renal
HCT-116 colon = tested on: HCT-116 colon
OVCAR-5 ovarian = tested on: OVCAR-5 ovarian
IGROV1 ovarian = tested on: IGROV1 ovarian
MCF7 breast = tested on: MCF7 breast
SNB-19 CNS = tested on: SNB-19 CNS
SF-539 CNS = tested on: SF-539 CNS
RPMI-8226 leukemia = tested on: RPMI-8226 leukemia
SR leukemia = tested on: SR leukemia
HCT-15 colon = tested on: HCT-15 colon
UACC-257 melanoma = tested on: UACC-257 melanoma
PC-3 prostate = tested on: PC-3 prostate
NCI/ADR-RES ovarian = tested on: NCI/ADR-RES ovarian
NCI-H23 lung = tested on: NCI-H23 lung
DU-145 prostate = tested on: DU-145 prostate
LOX IMVI melanoma = tested on: LOX IMVI melanoma
COLO 205 colon = tested on: COLO 205 colon
HOP-62 NSCLC = tested on: HOP-62 NSCLC
SF-295 CNS = tested on: SF-295 CNS
UACC-62 melanoma = tested on: UACC-62 melanoma
OVCAR-4 ovarian = tested on: OVCAR-4 ovarian
CCRF-CEM leukemia = tested on: CCRF-CEM leukemia
NCI-H460 lung = tested on: NCI-H460 lung
SNB-75 CNS = tested on: SNB-75 CNS
HL-60(TB) leukemia = tested on: HL-60(TB) leukemia
T-47D breast = tested on: T-47D breast
RXF 393 renal = tested on: RXF 393 renal
M14 melanoma = tested on: M14 melanoma
MALME-3M melanoma = tested on: MALME-3M melanoma
SF-268 CNS = tested on: SF-268 CNS
OVCAR-8 ovarian = tested on: OVCAR-8 ovarian
SW-620 colon = tested on: SW-620 colon
SK-MEL-5 melanoma = tested on: SK-MEL-5 melanoma
KM12 colon = tested on: KM12 colon
NCI-H226 lung = tested on: NCI-H226 lung
MDA-MB-231 breast = tested on: MDA-MB-231 breast
HCC-2998 colon = tested on: HCC-2998 colon
ACHN renal = tested on: ACHN renal

Question: With `Nc1ccc(N(CCCl)CCCl)cc1` as the compound, how does the GI50 (786-0 renal) read?
Answer: 3.87 µM

Question: What about the TGI (786-0 renal) of the same compound?
Answer: > 100 µM

Question: And the GI50 (U251 CNS)?
Answer: 3.56 µM

Question: And the TGI (U251 CNS)?
Answer: 58.3 µM

Question: What about the GI50 (CAKI-1 renal) of the same compound?
Answer: 0.439 µM

Question: And the TGI (CAKI-1 renal)?
Answer: 13.9 µM

Question: And the GI50 (SK-MEL-28 melanoma)?
Answer: 20.5 µM

Question: What about the TGI (SK-MEL-28 melanoma) of the same compound?
Answer: 65.1 µM

Question: What about the GI50 (NCI-H322M lung) of the same compound?
Answer: 40.6 µM

Question: What about the TGI (NCI-H322M lung) of the same compound?
Answer: > 100 µM

Question: What about the GI50 (MOLT-4 leukemia) of the same compound?
Answer: 1.05 µM

Question: And the TGI (MOLT-4 leukemia)?
Answer: > 100 µM

Question: What about the GI50 (BT-549 breast) of the same compound?
Answer: 7.26 µM

Question: What about the TGI (BT-549 breast) of the same compound?
Answer: 35.4 µM

Question: What about the GI50 (SK-MEL-2 melanoma) of the same compound?
Answer: 17.3 µM

Question: And the TGI (SK-MEL-2 melanoma)?
Answer: 42.8 µM

Question: What about the GI50 (OVCAR-3 ovarian) of the same compound?
Answer: 10 µM

Question: And the TGI (OVCAR-3 ovarian)?
Answer: 22.9 µM

Question: And the GI50 (A498 renal)?
Answer: 11.9 µM

Question: What about the TGI (A498 renal) of the same compound?
Answer: 30.2 µM

Question: What about the GI50 (SN12C renal) of the same compound?
Answer: 2.77 µM

Question: And the TGI (SN12C renal)?
Answer: 77.5 µM

Question: And the GI50 (K-562 leukemia)?
Answer: 9.89 µM

Question: And the TGI (K-562 leukemia)?
Answer: 68.4 µM

Question: And the GI50 (HT29 colon)?
Answer: 17.1 µM

Question: What about the TGI (HT29 colon) of the same compound?
Answer: > 100 µM

Question: What about the GI50 (A549 NSCLC) of the same compound?
Answer: 8.1 µM

Question: And the TGI (A549 NSCLC)?
Answer: > 100 µM

Question: What about the GI50 (MDA-MB-435) of the same compound?
Answer: 12.9 µM

Question: What about the TGI (MDA-MB-435) of the same compound?
Answer: 28 µM

Question: What about the GI50 (SK-OV-3 ovarian) of the same compound?
Answer: 11 µM

Question: And the TGI (SK-OV-3 ovarian)?
Answer: 55.3 µM

Question: And the GI50 (TK-10 renal)?
Answer: 21.4 µM

Question: What about the TGI (TK-10 renal) of the same compound?
Answer: 63.3 µM

Question: What about the GI50 (UO-31 renal) of the same compound?
Answer: 3.94 µM

Question: What about the TGI (UO-31 renal) of the same compound?
Answer: 47.4 µM

Question: What about the GI50 (HCT-116 colon) of the same compound?
Answer: 5.81 µM

Question: What about the TGI (HCT-116 colon) of the same compound?
Answer: > 100 µM

Question: What about the GI50 (OVCAR-5 ovarian) of the same compound?
Answer: 14.6 µM

Question: What about the TGI (OVCAR-5 ovarian) of the same compound?
Answer: 51.2 µM

Question: What about the GI50 (IGROV1 ovarian) of the same compound?
Answer: 10.2 µM

Question: And the TGI (IGROV1 ovarian)?
Answer: 40.5 µM

Question: And the GI50 (MCF7 breast)?
Answer: 0.932 µM

Question: What about the TGI (MCF7 breast) of the same compound?
Answer: 16.4 µM

Question: And the GI50 (SNB-19 CNS)?
Answer: 9.26 µM

Question: And the TGI (SNB-19 CNS)?
Answer: > 100 µM

Question: What about the GI50 (SF-539 CNS) of the same compound?
Answer: 1.84 µM

Question: And the TGI (SF-539 CNS)?
Answer: 18.6 µM

Question: And the GI50 (RPMI-8226 leukemia)?
Answer: 10.1 µM

Question: And the TGI (RPMI-8226 leukemia)?
Answer: 63.8 µM

Question: What about the GI50 (SR leukemia) of the same compound?
Answer: 0.417 µM

Question: What about the TGI (SR leukemia) of the same compound?
Answer: > 100 µM

Question: And the GI50 (HCT-15 colon)?
Answer: 8.94 µM

Question: And the TGI (HCT-15 colon)?
Answer: 62.6 µM

Question: What about the GI50 (UACC-257 melanoma) of the same compound?
Answer: 16.6 µM

Question: What about the TGI (UACC-257 melanoma) of the same compound?
Answer: 93.3 µM

Question: What about the GI50 (PC-3 prostate) of the same compound?
Answer: 13.3 µM

Question: And the TGI (PC-3 prostate)?
Answer: > 100 µM

Question: And the GI50 (NCI/ADR-RES ovarian)?
Answer: 5.45 µM

Question: What about the TGI (NCI/ADR-RES ovarian) of the same compound?
Answer: > 100 µM

Question: And the GI50 (NCI-H23 lung)?
Answer: 3.56 µM

Question: And the TGI (NCI-H23 lung)?
Answer: 49.4 µM

Question: And the GI50 (DU-145 prostate)?
Answer: 4.12 µM

Question: And the TGI (DU-145 prostate)?
Answer: > 100 µM

Question: And the GI50 (LOX IMVI melanoma)?
Answer: 2.37 µM

Question: What about the TGI (LOX IMVI melanoma) of the same compound?
Answer: 24 µM

Question: And the GI50 (COLO 205 colon)?
Answer: 13 µM

Question: What about the TGI (COLO 205 colon) of the same compound?
Answer: 40.4 µM

Question: What about the GI50 (HOP-62 NSCLC) of the same compound?
Answer: 4.1 µM

Question: And the TGI (HOP-62 NSCLC)?
Answer: 34.6 µM

Question: What about the GI50 (SF-295 CNS) of the same compound?
Answer: 2.65 µM

Question: What about the TGI (SF-295 CNS) of the same compound?
Answer: 49.5 µM

Question: What about the GI50 (UACC-62 melanoma) of the same compound?
Answer: 5.8 µM

Question: And the TGI (UACC-62 melanoma)?
Answer: 21.9 µM

Question: What about the GI50 (OVCAR-4 ovarian) of the same compound?
Answer: 26.7 µM

Question: And the TGI (OVCAR-4 ovarian)?
Answer: > 100 µM

Question: What about the GI50 (CCRF-CEM leukemia) of the same compound?
Answer: 0.453 µM

Question: And the TGI (CCRF-CEM leukemia)?
Answer: > 100 µM

Question: What about the GI50 (NCI-H460 lung) of the same compound?
Answer: 0.671 µM

Question: And the TGI (NCI-H460 lung)?
Answer: 84.4 µM

Question: What about the GI50 (SNB-75 CNS) of the same compound?
Answer: 14.5 µM

Question: And the TGI (SNB-75 CNS)?
Answer: > 100 µM

Question: And the GI50 (HL-60(TB) leukemia)?
Answer: 0.647 µM

Question: What about the TGI (HL-60(TB) leukemia) of the same compound?
Answer: 19.8 µM

Question: What about the GI50 (T-47D breast) of the same compound?
Answer: 4.5 µM

Question: What about the TGI (T-47D breast) of the same compound?
Answer: 23.2 µM

Question: And the GI50 (RXF 393 renal)?
Answer: 4.27 µM

Question: And the TGI (RXF 393 renal)?
Answer: 20.1 µM

Question: What about the GI50 (M14 melanoma) of the same compound?
Answer: 7.06 µM

Question: What about the TGI (M14 melanoma) of the same compound?
Answer: 80.9 µM

Question: And the GI50 (MALME-3M melanoma)?
Answer: 13.5 µM

Question: What about the TGI (MALME-3M melanoma) of the same compound?
Answer: 36 µM

Question: What about the GI50 (SF-268 CNS) of the same compound?
Answer: 2.65 µM

Question: And the TGI (SF-268 CNS)?
Answer: 44.4 µM

Question: And the GI50 (OVCAR-8 ovarian)?
Answer: 6.07 µM

Question: What about the TGI (OVCAR-8 ovarian) of the same compound?
Answer: > 100 µM

Question: And the GI50 (SW-620 colon)?
Answer: 5.3 µM

Question: What about the TGI (SW-620 colon) of the same compound?
Answer: 33.6 µM

Question: And the GI50 (SK-MEL-5 melanoma)?
Answer: 13.4 µM

Question: And the TGI (SK-MEL-5 melanoma)?
Answer: 37.1 µM

Question: What about the GI50 (KM12 colon) of the same compound?
Answer: 17 µM

Question: And the TGI (KM12 colon)?
Answer: 57.4 µM

Question: What about the GI50 (NCI-H226 lung) of the same compound?
Answer: 9.03 µM

Question: What about the TGI (NCI-H226 lung) of the same compound?
Answer: 30.2 µM

Question: And the GI50 (MDA-MB-231 breast)?
Answer: 20.8 µM

Question: What about the TGI (MDA-MB-231 breast) of the same compound?
Answer: > 100 µM

Question: What about the GI50 (HCC-2998 colon) of the same compound?
Answer: 13.8 µM

Question: What about the TGI (HCC-2998 colon) of the same compound?
Answer: 37.1 µM

Question: And the GI50 (ACHN renal)?
Answer: 0.554 µM

Question: And the TGI (ACHN renal)?
Answer: 14.5 µM
